This is an account of results in ChEMBL document CHEMBL1126018, “Syntheses and 5-HT2 antagonist activity of bicyclic 1,2,4-triazol-3(2H)-one and 1,3,5-triazine-2,4(3H)-dione derivatives” (J Med Chem, 1992).

By UniProt entry, the sequences of proteins in these tests, tags left out. Where a name states a change or a piece, a line headed by the entry shows the natural chain unless it says otherwise.
UniProt P30994: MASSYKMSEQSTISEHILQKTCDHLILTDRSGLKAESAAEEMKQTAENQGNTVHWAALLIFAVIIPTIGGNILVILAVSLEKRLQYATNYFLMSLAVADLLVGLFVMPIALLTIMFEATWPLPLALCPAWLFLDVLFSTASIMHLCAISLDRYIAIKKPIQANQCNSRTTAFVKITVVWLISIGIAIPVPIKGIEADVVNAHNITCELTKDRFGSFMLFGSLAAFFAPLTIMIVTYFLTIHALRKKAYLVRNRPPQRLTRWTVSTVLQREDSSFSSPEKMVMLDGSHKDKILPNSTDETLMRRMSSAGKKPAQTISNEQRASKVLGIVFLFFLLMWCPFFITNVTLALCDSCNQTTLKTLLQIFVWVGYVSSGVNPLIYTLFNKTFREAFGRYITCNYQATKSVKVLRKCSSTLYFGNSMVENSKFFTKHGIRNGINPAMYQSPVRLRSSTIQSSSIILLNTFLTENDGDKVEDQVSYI
UniProt P08909: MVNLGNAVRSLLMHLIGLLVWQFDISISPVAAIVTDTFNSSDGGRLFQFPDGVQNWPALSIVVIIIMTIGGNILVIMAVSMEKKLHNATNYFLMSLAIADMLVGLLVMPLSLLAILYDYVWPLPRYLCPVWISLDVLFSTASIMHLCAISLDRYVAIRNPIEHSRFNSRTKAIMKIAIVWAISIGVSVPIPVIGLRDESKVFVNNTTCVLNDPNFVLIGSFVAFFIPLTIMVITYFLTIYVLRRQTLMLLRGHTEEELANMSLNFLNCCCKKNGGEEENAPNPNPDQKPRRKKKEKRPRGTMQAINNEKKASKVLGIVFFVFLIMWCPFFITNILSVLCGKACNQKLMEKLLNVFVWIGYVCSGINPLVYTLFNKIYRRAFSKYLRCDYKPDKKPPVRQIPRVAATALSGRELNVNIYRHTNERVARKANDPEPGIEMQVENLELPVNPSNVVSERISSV
UniProt P14842: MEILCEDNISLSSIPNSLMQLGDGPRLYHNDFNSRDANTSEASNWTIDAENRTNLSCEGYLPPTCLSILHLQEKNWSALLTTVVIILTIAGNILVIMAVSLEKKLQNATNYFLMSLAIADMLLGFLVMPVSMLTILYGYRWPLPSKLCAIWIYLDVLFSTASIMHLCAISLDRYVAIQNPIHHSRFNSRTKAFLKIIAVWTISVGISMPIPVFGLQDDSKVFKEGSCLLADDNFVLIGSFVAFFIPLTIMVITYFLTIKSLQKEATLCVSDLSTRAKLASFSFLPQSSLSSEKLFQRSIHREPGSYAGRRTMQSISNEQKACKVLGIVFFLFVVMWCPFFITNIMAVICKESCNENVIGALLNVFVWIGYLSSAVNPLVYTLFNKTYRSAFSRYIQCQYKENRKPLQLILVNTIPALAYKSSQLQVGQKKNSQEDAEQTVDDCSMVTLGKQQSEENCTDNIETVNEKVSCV

This assay has as its target Serotonin 2 (5-HT2) receptor (Rattus norvegicus, UniProt P30994+P08909+P14842). The assay can be described thus: In vitro antagonistic activity against the contraction induced by 5-HT through 5-hydroxytryptamine 2 receptor in rat thoracic aortic strips. In kind it is functional.

Each structure is given as a SMILES string.

Take `Cc1nc2sccn2c(=O)c1CCN1CCC(=C(c2ccc(F)cc2)c2ccc(F)cc2)CC1` [RITANSERIN]: the pA2 was 8.8.
